The conditions of series [1]: DLS, distilled water, concentrations of 0.1 to 0.5%.
The conditions of series [2]: for Platinum concentration, Blood / Platinum concentration, Kidney / Platinum concentration, Liver / Platinum concentration, Lung / Platinum concentration, Normal muscle / Platinum concentration, Tumor tissue: Sarcoma-180 tumor-bearing rats; for Ratio of tumor/normal tissues (TTR): platinum concentration tumor tissue/normal muscle.
The subject of another series is MCF (breast cancer). Nature of the series: In vitro cytotoxicity against human cancer cell lines. As to conditions: read-out: In vitro cytotoxicities, IC50.
For another series, the system named is SK-OV3 (ovarian cancer). Described as above. As to conditions: read-out: In vitro cytotoxicities, IC50.
For the next series, the system named is A-431 (vulvar cancer). The description is as above. As to conditions: read-out: In vitro cytotoxicities, IC50.
The test system of a further series is MES-SA (uterine cancer). The description is as above. As to conditions: read-out: In vitro cytotoxicities, IC50.
Setting [3] is: 2 hrs after tail vein injection.
The mark [4] stands for this setting: 24 hrs after tail vein injection.

Like-named read-outs stand apart in the source and are kept apart here.

Consider 2 substances from patent US8030506B2, “Tumor selective and biodegradable cyclotriphosphazene-platinum(II) conjugate anticancer agent, and preparation method thereof” (Nanohybrid Co., Ltd, priority 2007, dated 2011).

For “tris[methoxy-poly(ethylene glycol)550]tris[cis-dicyclohexylamineplatinum(II) glycylphenylalanylleusylaspartate]cyclo-triphosphazene [Example 1]”, the “average diameter of nanoparticles” value in series [1] is given as “about 200 nm”. In series [2] (setting [3]), the “Platinum concentration, Blood” value came out at 6.00 mg/kg; the “Platinum concentration, Kidney” value is 18.9 mg/kg; the “Platinum concentration, Liver” value was found to be 5.63 mg/kg; the “Platinum concentration, Lung” value came to 3.18 mg/kg. Further, in series [2] (setting [3]), the “Platinum concentration, Normal muscle” value was 1.09 mg/kg; the “Platinum concentration, Tumor tissue” value came to 24.3 mg/kg; the “Ratio of tumor/normal tissues (TTR)” value was 24.3/1.09 = 22.3. For the same substance, in series [2] (setting [4]), the “Platinum concentration, Blood” value was 1.08 mg/kg; the “Platinum concentration, Kidney” value was 17.3 mg/kg; the “Platinum concentration, Liver” value came to 6.43 mg/kg; the “Platinum concentration, Lung” value came out at 1.56 mg/kg. In series [2] (setting [4]), the “Platinum concentration, Normal muscle” value worked out at 0.23 mg/kg; the “Platinum concentration, Tumor tissue” value amounted to 19.1 mg/kg; the “Ratio of tumor/normal tissues (TTR)” value is 19.1/0.23 = 83.0. Further, the IC50 (in general, the concentration that gives 50% inhibition) with MCF (breast cancer) came out at 46.7 µM. Moreover, in the series with SK-OV3 (ovarian cancer), the IC50 was determined as 79 µM. Further, in the series on A-431 (vulvar cancer), the IC50 stood at 73.1 µM. Moreover, the concentration for half-maximal inhibition (IC50) with MES-SA (uterine cancer) turned out to be 62.6 µM.
For “tris[methoxy-poly(ethylene glycol)350]tris[(cis-amminecyclohexylamineplatinum(II) glycylphenylalanyl-leusyl-malonate)]cyclotriphosphazene [Example 3]”, the “average diameter of nanoparticles” value in series [1] came out at 105 nm. Besides, the concentration for half-maximal inhibition (IC50) in the series with MCF (breast cancer) was determined as 26.6 µM; in the series with SK-OV3 (ovarian cancer), 60.6 µM; in the series on A-431 (vulvar cancer), 37.2 µM; in the series on MES-SA (uterine cancer) it was 47.1 µM.
